Data on one molecule can be found in patent publication US6808893 (Johns Hopkins, dated 2004).

The target in assay [1] is T1, myc-tagged full-length GTRAP4-48 (rat, UniProt Q9ES67).
T1 construct: tested from solubilized cell extract; also called myc-tagged GTRAP4-48; not shown: myc tag of the myc-tagged pRK5 vector
The experiment in a line: GST pull-down from HEK 293T lysate, anti-c-myc immunoblot. As for the experimental part: (§1) Fusion proteins and in vitro binding. Full-length EAAT4 was subcloned into the EcoR I site of the GST-fusion vector pGEX-6P-1 (Pharmacia). Synthesis of recombinant proteins in BL21 cells (Novagen) was induced by 0.1 mM isopropyl β-D-thiogalactoside for 2 hrs at 30° C. and purified according to the protocol provided by the manufacturer (Pharmacia). […] The cellular lysate was incubated with GST or GST-EAAT4 immobilized on glutathione-Sepharose-4B, and washed to remove non-specifically bound proteins. Specifically bound proteins were eluted with 2×SDS loading buffer and analyzed by immunoblotting using an anti-c-myc antibody.
(§2) GTRAP4-41 and 4-48 Immunoprecipitation with Fusion Proteins. Full-length EAAT4 was subcloned into the EcoR I site of the GST-fusion vector pGEX-6P-1 (Pharmacia). Synthesis of recombinant proteins in BL21 cells (Novagen) was induced by 0.1 mM isopropyl b-D-thiogalactoside for 2 hrs at 30° C. and prepared as a crude bacterial lysate by mild sonication in ice-cold 1 C PBS and solubilization in 1% Triton X-100. Cell debris was removed by centrifugation at 7,000 g and the cleared bacterial lysate applied to glutathione-Sepharose-4B (Pharmacia). […] Specifically bound proteins were eluted with 3×SDS loading buffer and analyzed by immunoblotting using an anti-c-myc antibody. […]
(In western blotting, separated proteins are transferred to a membrane and probed.)

For assay [2], the target named is T2, myc-tagged full-length GTRAP4-41 (rat, UniProt Q9QWN8).
T2 construct: tested from solubilized cell extract; also called myc-tagged GTRAP4-41; not shown: myc tag of the myc-tagged pRK5 vector
Described as above. As for the experimental part: as §1, §2

B1: GST (glutathione S-transferase) alone (other, UniProt P08515 1-218, looked up)
chain: MSPILGYWKIKGLVQPTRLLLEYLEEKYEEHLYERDEGDKWRNKKFELGLEFPNLPYYIDGDVKLTQSMAIIRYIADKHNMLGGCPKERAEISMLEGAVLDIRYGVSRIAYSKDFETLKVDFLSKLPEMLKMFEDRLCHKTYLNGDHVTHPDFMLYDALDVVLYMDPMCLDAFPKLVCFKKRIEAIPQIDKYLKSSKYIAWPLQGWQATFGGGDHPPK
notes: Control, immobilized on glutathione-Sepharose
On to B1, for which the binding result in assay [1] and in assay [2] was “no binding” each time.
